Measured values reported in patent US7166618B2, “Nitrosated and nitrosylated cyclooxygenase-2 inhibitors, compositions and methods of use” (NitroMed, Inc., priority 1999, dated 2007).

Molecular target: T1, ovine COX-2 (Ovis aries, UniProt P79208)
T1 sequence (P79208 17-603): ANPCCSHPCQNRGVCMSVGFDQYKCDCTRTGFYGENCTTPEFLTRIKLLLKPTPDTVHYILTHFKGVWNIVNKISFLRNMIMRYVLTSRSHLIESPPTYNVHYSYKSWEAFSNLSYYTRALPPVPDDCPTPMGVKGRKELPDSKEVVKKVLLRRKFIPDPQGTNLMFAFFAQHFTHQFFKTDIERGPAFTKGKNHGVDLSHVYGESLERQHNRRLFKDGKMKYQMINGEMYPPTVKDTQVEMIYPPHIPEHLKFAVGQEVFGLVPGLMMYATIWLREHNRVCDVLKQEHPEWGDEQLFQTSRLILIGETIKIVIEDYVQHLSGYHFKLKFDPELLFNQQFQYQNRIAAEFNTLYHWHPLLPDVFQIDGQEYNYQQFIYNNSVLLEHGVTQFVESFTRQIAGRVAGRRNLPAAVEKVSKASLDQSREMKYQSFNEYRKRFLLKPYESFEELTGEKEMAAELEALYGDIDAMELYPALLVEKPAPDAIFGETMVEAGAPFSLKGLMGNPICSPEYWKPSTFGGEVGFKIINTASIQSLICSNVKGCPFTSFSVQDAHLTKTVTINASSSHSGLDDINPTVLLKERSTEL
Type: biochemical

1-(3-(4-Fluorophenyl)-7-(nitrooxymethyl)(3a-hydroimidazolo(1,2-a)pyridin-2-yl))-4-(methylsulfonyl)benzene [Example 5b]
IC50: 33 µM
